From article PMC7456811, “Regulation of Melanocortin-4 Receptor Pharmacology by Two Isoforms of Melanocortin Receptor Accessory Protein 2 in Topmouth Culter (Culter alburnus)” (Frontiers in Endocrinology, 2020)

Sequences of proteins named here, by UniProt entry; tags and fusion partners are left off.
UniProt P32245, whole entry: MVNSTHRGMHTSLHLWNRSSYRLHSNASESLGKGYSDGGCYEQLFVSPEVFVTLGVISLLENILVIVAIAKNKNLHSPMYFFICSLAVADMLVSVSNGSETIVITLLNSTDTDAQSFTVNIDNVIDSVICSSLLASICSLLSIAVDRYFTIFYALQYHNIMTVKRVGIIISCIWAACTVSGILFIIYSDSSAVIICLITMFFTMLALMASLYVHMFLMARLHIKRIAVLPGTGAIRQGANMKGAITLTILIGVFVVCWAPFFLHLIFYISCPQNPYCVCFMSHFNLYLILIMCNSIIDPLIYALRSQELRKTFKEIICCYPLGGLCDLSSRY

Target: T1, hMC4R (Homo sapiens, UniProt P32245)
T1 construct: expressed in transfected cells; host or cells: HEK293T
Assay: Intracellular cAMP signaling (radioimmunoassay)
Type: cell-based
Conditions: HEK293T cells, reference set to 100

Rmax (cAMP): 100%
SMILES: O=C(N[C@H](Cc1ccc(Cl)cc1)C(=O)N1CCC(Cn2cncn2)(C2CCCCC2)CC1)[C@H]1Cc2ccccc2CN1 [THIQ, N-[(3R)-1,2,3,4-Tetrahydroisoquinolinium-3-ylcarbonyl]-(1R)-1-(4-chlorobenzyl)-2-[4-cyclohexyl-4-(1H-1,2,4-triazol-1-ylmethyl)piperidin-1-yl]-2-oxoethylamine]
